Literature values, collected in US20090186809A1, “USE OF VALPROIC ACID FOR THE TOPICAL TREATMENT OF MILD TO MODERATE ACNE VULGARIS” (TOPOTARGET GERMANY AG, priority 2006, published 2009).

Conditions: metastatic renal cell carcinoma, 60/329 patients; cited from earlier work

Substance: interleukin 2: cytokine secreted by activated T cells with antitumor activity
- patients in whom antithyroid antibodies were detected: 18%
